Laboratory results as given in ChEMBL document CHEMBL1134666, “Design, synthesis, and biological evaluation of novel nucleoside and nucleotide analogues as agents against DNA viruses and/or retroviruses” (J Med Chem, 2001).

Tests used:
[1] = substrate: Nc1ncnc2c1ncn2CCOCP(=O)(O)O; experiment: (§1) Michaelis rate constant is determined by the Lineweaver and Burk method against adenosine deaminase
[2] = substrate: Nc1ncnc2c1ncn2[C@@H]1O[C@H](CO)[C@@H](O)[C@@H]1O; experiment: as §1
[3] = substrate: Nc1ncnc2c1ncn2CCOCP(=O)(O)O; experiment: Michaelis rate constant is determined by the Lineweaver and Burk method against PRPP synthetase
Summary of the method: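 PRPP synthetase reaction in 10.0 mM potassium phosphate buffer (pH 8.0) with 5.0 mM MgCl₂, 2.5 mM PRPP, 0.04 unit enzyme and AMP or test nucleotide. Reactions ran linearly and were stopped with MeOH after 4 h. Diphosphate or ATP formation was analysed by anion-exchange HPLC. Inhibition was measured at different AMP concentrations plus inhibitor, with 0.002 unit enzyme, 37 °C, 15 min, ATP formation followed by HPLC.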

Protein	Km [1] [µM]	Km [2] [µM]	Km [3] [µM]
Adenosine deaminase (Bos taurus), P56658 (protein) MAQTPAFNKPKVELHVHLDGAIKPETILYYGRKRGIALPADTPEELQNIIGMDKPLSLPEFLAKFDYYMPAIAGCREAVKRIAYEFVEMKAKDGVVYVEVRYSPHLLANSKVEPIPWNQAEGDLTPDEVVSLVNQGLQEGERDFGVKVRSILCCMRHQPSWSSEVVELCKKYREQTVVAIDLAGDETIEGSSLFPGHVKAYAEAVKSGVHRTVHAGEVGSANVVKEAVDTLKTERLGHGYHTLEDATLYNRLRQENMHFEVCPWSSYLTGAWKPDTEHPVVRFKNDQVNYSLNTDDPLIFKSTLDTDYQMTKNEMGFTEEEFKRLNINAAKSSFLPEDEKKELLDLLYKAYGMPSPASAEQCL	430	43	–
Phosphoribosyl pyrophosphate synthase-associated protein 2 (Homo sapiens), O60256 (protein) MFCVTPPELETKMNITKGGLVLFSANSNSSCMELSKKIAERLGVEMGKVQVYQEPNRETRVQIQESVRGKDVFIIQTVSKDVNTTIMELLIMVYACKTSCAKSIIGVIPYFPYSKQCKMRKRGSIVSKLLASMMCKAGLTHLITMDLHQKEIQGFFNIPVDNLRASPFLLQYIQEEIPDYRNAVIVAKSPASAKRAQSFAERLRLGIAVIHGEAQDAESDLVDGRHSPPMVRSVAAIHPSLEIPMLIPKEKPPITVVGDVGGRIAIIVDDIIDDVDSFLAAAETLKERGAYKIFVMATHGLLSSDAPRRIEESAIDEVVVTNTIPHEVQKLQCPKIKTVDISMILSEAIRRIHNGESMSYLFRNIGLDD	–	–	1500
